# Apparent affinities of Ab-14 variants for a coronavirus HR2 peptide

The measurements come from Li et al. 2023 (doi:10.1038/s41467-023-39022-2) through the FLAb antibody collection.

Target: peptide PDVDLGDISGINAS, taken from heptad repeat 2 (HR2) of SARS-CoV-2 spike.

Parent scFv Ab-14: VH joined to VL by three GGGGS repeats. Changes lie in the light chain CDRs alone.
VH: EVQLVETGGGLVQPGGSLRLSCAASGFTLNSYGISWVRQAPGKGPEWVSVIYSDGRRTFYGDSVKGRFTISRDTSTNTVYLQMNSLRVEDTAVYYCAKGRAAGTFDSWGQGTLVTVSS
VL: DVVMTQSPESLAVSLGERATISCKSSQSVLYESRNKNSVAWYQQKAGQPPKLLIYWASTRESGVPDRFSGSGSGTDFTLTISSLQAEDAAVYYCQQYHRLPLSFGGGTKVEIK

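The starting antibody came from a phage panning campaign against this peptide. Designed CDR sequences, proposed from the first random library and measured here. Their group label is 14L_Ctrl (Ctrl: baseline library sampled from a position-specific scoring matrix, with some repeated check sequences). The scFvs were displayed on barcoded MATa yeast, the peptide on MATalpha yeast. Binding brings cells together so that they mate, and sequencing counts the barcode pairs among the diploids. Scores were corrected for input abundance and mapped to Kd with protein pairs of known affinity run in the same pool. The assay was run in six technical replicates.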

Changes read parent residue, position, new residue, counted from the first residue of the VL shown.
Values are log10 of the apparent Kd in nM; lower means stronger binding.
A mean of the replicates is given; it leaves out those without a signal.
"n.d." marks a missing value. The strain was present, yet no cells mated with the target were sequenced in that replicate, which points to weak or no binding.
As a blank, each scFv also met three strains without target: over all light chain designs, 4% of these pairings were detected, typically at 2.64 and seldom below 1.59. For each scFv, signals with the empty controls are counted beside the result, with their mean in brackets.
The parent sequence was in this pool as ten entries: three were never detected, three once, and four in most replicates, with averages from 0.34 to 2.37.
The range of this assay differs from that of the first round, and the authors advise against merging the two.
The authors' rule: three or more of the six replicates give a measured affinity, fewer mean a poor binder.

changes | log10 Kd (nM) by replicate | log10 Kd (nM), mean | empty controls
Y31N/W56D/T59G/Q96D/P101V | 0.85 / 0.21 / 1.92 / 1.62 / 0.60 / 0.79 | 1.00 | 0/18
Y31D/W56Q/S62E/L100M | 0.81 / 0.95 / 1.35 / 1.03 / 0.78 / 0.89 | 0.97 | 0/18
S25I/L30Q/L100C | n.d. / n.d. / n.d. / n.d. / n.d. / n.d. | n.d. | 0/18
W56H/S62M | 1.07 / 0.85 / 1.11 / 1.14 / 1.16 / 1.28 | 1.10 | 1/18 (2.88)
N35M | n.d. / n.d. / n.d. / n.d. / n.d. / 2.42 | 2.42 | 1/18 (3.49)
R34T/H98F | 1.63 / 1.35 / 0.99 / 1.14 / 0.99 / 1.85 | 1.32 | 0/18
S103D | 2.24 / n.d. / n.d. / n.d. / n.d. / n.d. | 2.24 | 0/18
K24H/S25C/L30M/Y31T/Q96A | 2.51 / 2.28 / 2.04 / 1.92 / 1.93 / n.d. | 2.13 | 1/18 (1.82)
S26V/S28Y/L30G | n.d. / 2.25 / 0.88 / 1.43 / 2.50 / 2.02 | 1.82 | 0/18
S38C | n.d. / 2.16 / n.d. / n.d. / n.d. / n.d. | 2.16 | 0/18
S25L/Y31H/P101I | n.d. / n.d. / n.d. / n.d. / n.d. / n.d. | n.d. | 0/18
S25V/Q27E/Y31A/W56K/E61A | 0.42 / 0.22 / 0.30 / 0.77 / 0.40 / 0.61 | 0.46 | 0/18
S28E/E32Y | n.d. / n.d. / n.d. / n.d. / n.d. / 1.39 | 1.39 | 1/18 (1.82)
S25I/Q27I | n.d. / n.d. / n.d. / n.d. / n.d. / n.d. | n.d. | 0/18
V29F/S33D/E61V/Q96D | 0.62 / 0.36 / 0.78 / -0.04 / 0.27 / 0.42 | 0.40 | 1/18 (1.87)
K24S/S25Q/Y31D/W56E/Q95K/L100H | n.d. / n.d. / n.d. / n.d. / n.d. / n.d. | n.d. | 0/18
Q27P/S33H/S62H/Y97P | n.d. / n.d. / n.d. / n.d. / n.d. / n.d. | n.d. | 1/18 (0.32)
N35M/H98Q | n.d. / n.d. / n.d. / 1.10 / n.d. / n.d. | 1.10 | 0/18
S28H/V29P/A57S/S62D/L102I | n.d. / n.d. / n.d. / n.d. / n.d. / n.d. | n.d. | 1/18 (1.41)
V29I/R34D/S38W/W56R | n.d. / n.d. / n.d. / n.d. / n.d. / n.d. | n.d. | 1/18 (2.13)
S33D/L100D | n.d. / n.d. / n.d. / n.d. / n.d. / n.d. | n.d. | 1/18 (1.14)
R34E/T59H | 1.52 / 1.14 / 0.68 / 0.86 / 0.74 / 1.73 | 1.11 | 1/18 (2.08)
Y31R | n.d. / 4.22 / n.d. / n.d. / n.d. / n.d. | 4.22 | 2/18 (2.02)
S28G/E32D/S62M | 1.61 / 1.50 / 1.07 / 1.20 / 1.64 / 1.92 | 1.49 | 2/18 (3.81)
V29W/K36H/W56E/Y97D | 0.96 / 1.04 / 1.46 / 1.61 / 1.32 / 1.77 | 1.36 | 0/18
S26R/S33Y/R34M/W56A | 1.17 / 0.37 / 0.49 / 0.51 / 0.53 / 0.88 | 0.66 | 2/18 (2.01)
W56D/Q96C | 1.35 / 1.06 / 1.16 / 1.57 / 1.17 / 1.30 | 1.27 | 4/18 (2.68)
L30A/Y31N/W56A/A57V/S62Q | 0.51 / 0.76 / 0.51 / 0.38 / 0.44 / 0.71 | 0.55 | 2/18 (2.42)
L30M | 1.77 / 2.97 / 1.50 / 2.49 / 2.06 / 3.21 | 2.33 | 0/18
V29F/S33L/W56S/Q96S/P101I | n.d. / n.d. / n.d. / n.d. / n.d. / n.d. | n.d. | 0/18
V29Y/E32N/R34A/W56E | n.d. / n.d. / 0.46 / n.d. / 1.38 / 2.85 | 1.56 | 1/18 (1.72)
W56H/T59I/S62Y | 1.11 / 1.09 / 1.11 / 0.44 / 1.07 / 0.63 | 0.91 | 0/18
Y31H | n.d. / n.d. / n.d. / 2.18 / 2.10 / n.d. | 2.14 | 0/18
R34T/K36S/W56Q/H98W | 0.50 / 0.33 / 0.35 / 0.22 / 0.18 / 0.28 | 0.31 | 3/18 (2.94)
S25N/S28P/Y31W/R34S/N35C/K36S | n.d. / n.d. / n.d. / n.d. / n.d. / n.d. | n.d. | 0/18
L30F/W56E/S62D/S103T | 0.44 / 0.71 / 0.38 / -0.01 / 0.10 / 0.61 | 0.37 | 1/18 (2.89)

Excerpt, the first 3 entries:

changes | log10 Kd (nM) by replicate | log10 Kd (nM), mean | empty controls
Y31N/W56D/T59G/Q96D/P101V | 0.85 / 0.21 / 1.92 / 1.62 / 0.60 / 0.79 | 1.00 | 0/18
Y31D/W56Q/S62E/L100M | 0.81 / 0.95 / 1.35 / 1.03 / 0.78 / 0.89 | 0.97 | 0/18
S25I/L30Q/L100C | n.d. / n.d. / n.d. / n.d. / n.d. / n.d. | n.d. | 0/18